The text below walks through data of PubChem BioAssay (Tox21).

The chains behind the UniProt entries cited, without tags or fusion partners.
UniProt Q92731, whole entry: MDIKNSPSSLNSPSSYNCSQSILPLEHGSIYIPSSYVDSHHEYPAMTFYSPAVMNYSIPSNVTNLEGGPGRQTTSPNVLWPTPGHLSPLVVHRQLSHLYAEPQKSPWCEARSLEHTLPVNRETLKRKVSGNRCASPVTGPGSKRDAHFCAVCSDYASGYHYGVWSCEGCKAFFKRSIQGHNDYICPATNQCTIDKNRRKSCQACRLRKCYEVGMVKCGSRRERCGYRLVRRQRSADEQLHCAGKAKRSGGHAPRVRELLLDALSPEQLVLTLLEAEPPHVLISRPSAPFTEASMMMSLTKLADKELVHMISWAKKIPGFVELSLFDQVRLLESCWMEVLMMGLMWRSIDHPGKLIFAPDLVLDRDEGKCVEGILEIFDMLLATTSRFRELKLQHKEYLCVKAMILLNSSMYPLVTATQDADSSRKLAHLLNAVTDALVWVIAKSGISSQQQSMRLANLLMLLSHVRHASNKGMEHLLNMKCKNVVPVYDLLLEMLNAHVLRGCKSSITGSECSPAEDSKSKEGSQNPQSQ
UniProt P03372, whole entry: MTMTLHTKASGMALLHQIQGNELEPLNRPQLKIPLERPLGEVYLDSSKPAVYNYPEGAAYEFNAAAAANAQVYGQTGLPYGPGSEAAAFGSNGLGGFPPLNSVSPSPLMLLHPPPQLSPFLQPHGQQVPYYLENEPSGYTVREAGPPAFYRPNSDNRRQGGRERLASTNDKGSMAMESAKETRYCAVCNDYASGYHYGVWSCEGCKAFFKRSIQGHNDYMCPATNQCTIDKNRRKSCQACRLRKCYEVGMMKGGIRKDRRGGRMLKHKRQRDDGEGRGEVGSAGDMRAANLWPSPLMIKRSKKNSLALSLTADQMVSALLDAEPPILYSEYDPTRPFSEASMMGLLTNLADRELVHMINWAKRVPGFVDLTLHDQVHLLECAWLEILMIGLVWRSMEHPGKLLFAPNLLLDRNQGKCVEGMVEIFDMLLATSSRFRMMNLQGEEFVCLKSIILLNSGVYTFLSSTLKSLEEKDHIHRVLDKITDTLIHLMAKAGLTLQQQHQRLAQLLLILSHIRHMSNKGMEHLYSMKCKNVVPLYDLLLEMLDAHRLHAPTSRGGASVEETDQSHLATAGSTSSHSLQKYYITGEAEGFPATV
UniProt P06401, whole entry: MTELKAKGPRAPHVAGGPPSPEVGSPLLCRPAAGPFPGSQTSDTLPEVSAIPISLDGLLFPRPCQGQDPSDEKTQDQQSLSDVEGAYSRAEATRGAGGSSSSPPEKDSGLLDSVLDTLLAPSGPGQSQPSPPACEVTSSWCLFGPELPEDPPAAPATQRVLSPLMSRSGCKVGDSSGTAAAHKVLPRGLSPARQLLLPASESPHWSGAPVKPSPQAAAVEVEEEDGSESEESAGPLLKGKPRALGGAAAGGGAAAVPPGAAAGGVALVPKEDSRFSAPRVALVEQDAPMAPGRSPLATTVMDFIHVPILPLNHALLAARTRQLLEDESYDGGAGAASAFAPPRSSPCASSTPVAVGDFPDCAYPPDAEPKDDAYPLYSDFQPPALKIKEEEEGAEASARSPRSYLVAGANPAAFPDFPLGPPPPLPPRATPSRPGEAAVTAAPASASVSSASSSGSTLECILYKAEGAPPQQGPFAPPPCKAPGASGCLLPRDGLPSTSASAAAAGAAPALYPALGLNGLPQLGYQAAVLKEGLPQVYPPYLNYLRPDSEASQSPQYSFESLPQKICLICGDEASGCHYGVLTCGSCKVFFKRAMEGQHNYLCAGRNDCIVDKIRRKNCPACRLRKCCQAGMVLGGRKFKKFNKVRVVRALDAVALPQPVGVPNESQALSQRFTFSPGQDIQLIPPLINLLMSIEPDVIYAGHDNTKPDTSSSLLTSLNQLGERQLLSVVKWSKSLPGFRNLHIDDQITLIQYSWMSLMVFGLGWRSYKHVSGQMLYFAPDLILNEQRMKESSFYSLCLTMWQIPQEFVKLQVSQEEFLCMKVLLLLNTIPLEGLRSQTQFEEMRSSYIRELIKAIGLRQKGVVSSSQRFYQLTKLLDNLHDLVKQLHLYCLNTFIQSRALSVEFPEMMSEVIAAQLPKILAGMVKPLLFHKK
UniProt P16473, whole entry: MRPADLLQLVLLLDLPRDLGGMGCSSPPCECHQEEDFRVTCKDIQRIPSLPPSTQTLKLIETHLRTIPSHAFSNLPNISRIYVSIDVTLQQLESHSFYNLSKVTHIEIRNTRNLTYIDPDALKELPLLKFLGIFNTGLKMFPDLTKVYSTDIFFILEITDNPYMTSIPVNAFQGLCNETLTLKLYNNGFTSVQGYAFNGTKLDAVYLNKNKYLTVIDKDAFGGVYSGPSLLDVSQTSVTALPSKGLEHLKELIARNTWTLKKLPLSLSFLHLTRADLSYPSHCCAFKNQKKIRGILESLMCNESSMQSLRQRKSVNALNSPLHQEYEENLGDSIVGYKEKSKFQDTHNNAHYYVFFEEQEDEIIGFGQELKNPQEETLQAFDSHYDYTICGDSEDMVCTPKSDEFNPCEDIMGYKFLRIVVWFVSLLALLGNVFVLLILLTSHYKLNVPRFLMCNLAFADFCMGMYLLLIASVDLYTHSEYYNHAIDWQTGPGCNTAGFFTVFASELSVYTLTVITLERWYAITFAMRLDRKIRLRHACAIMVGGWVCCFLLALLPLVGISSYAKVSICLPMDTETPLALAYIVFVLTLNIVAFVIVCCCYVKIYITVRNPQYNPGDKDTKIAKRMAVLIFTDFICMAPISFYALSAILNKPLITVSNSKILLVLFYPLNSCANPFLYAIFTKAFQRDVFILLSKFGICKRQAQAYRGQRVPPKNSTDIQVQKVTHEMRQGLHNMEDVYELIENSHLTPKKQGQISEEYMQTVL
UniProt P10275, whole entry: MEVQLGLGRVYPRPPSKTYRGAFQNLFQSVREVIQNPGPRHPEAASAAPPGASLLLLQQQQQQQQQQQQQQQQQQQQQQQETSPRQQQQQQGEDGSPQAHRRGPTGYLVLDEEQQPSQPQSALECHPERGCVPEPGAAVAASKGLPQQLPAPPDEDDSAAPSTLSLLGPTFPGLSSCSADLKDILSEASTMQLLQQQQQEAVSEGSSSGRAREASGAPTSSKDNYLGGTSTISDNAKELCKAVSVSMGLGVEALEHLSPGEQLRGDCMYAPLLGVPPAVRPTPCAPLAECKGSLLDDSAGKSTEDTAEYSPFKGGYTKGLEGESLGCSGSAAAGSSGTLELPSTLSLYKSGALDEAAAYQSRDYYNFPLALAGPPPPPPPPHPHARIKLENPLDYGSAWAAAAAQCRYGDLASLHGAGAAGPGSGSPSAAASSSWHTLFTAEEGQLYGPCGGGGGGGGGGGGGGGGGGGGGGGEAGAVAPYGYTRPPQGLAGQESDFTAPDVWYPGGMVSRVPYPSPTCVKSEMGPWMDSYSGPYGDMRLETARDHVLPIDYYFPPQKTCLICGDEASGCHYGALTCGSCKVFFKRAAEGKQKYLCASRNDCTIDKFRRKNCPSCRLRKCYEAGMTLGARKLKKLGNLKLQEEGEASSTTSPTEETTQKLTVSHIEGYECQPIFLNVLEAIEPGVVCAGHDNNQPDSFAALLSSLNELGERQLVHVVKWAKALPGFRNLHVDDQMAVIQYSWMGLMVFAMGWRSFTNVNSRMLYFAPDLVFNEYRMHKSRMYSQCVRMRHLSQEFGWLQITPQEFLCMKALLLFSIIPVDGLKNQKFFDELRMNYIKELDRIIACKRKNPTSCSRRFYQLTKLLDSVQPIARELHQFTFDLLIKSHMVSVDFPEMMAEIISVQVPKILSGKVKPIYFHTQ

Values joined by “and” are separate entries in the source; they are usually repeats but may differ in a detail not shown here. Equal values may be shown once. The entries are a selection whose mix differs from that of the whole data set. Results filed as inconclusive are left out. Where a structure was tested more than once in an assay, its records may differ in their call. Active and inactive are the calls of the source. Unless noted, calls follow the shape of the dose curve; as a rule, active = well fitted curve in the direction sought with a large enough effect in the repeat runs; inconclusive = weak or mixed curves; inactive = no such curve, though single readings can be large; an effect the other way counts as inactive or inconclusive.

For test [1], the target named is Estrogen receptor beta (Homo sapiens) (UniProt Q92731). Put plainly: qHTS assay to identify small molecule antagonists of the estrogen receptor beta (ER-beta) signaling pathway (AID 1259378; active = well fitted inhibition curve with a large enough effect in the signal ratio in the repeat runs, not every such curve was filed as active; the % refers to the signal ratio). The following applies: ER-beta-UAS-bla HEK293T, beta-lactamase FRET ratio, 16 h; at 92.4 µM (top of the series) unless noted. The text has this:
National Center for Advancing Translational Sciences [NCATS]
NIH Chemical Genomics Center [NCGC]
U.S. Environmental Protection Agency [EPA]
National Institutes of Environmental Health Sciences [NIEHS]
National Toxicology Program [NTP]
U.S. Food and Drug Administration [FDA]
Estrogen receptor (ER), a nuclear hormone receptor, plays an important role in development, metabolic homeostasis and reproduction. Two subtypes of ER, ER-alpha and ER-beta, have similar expression patterns with some uniqueness in both types. Endocrine disrupting chemicals (EDCs) and their interactions with steroid hormone receptors like ER causes disruption of normal endocrine function. To identify the compounds that inhibit ER signaling, an ER-beta-UAS-bla GripTite cell line (Life Technologies, Madison, WI, USA) containing a beta-lactamase reporter gene under the control of an UAS response element was used to screen Tox21 10K compound library.
Tox21 Assay Protocol Summary:
ER-beta-UAS-bla HEK293T cells were dispensed at 2,000 cells/4 uL of assay medium containing 2% charcoal stripped FBS per well into black wall/clear-bottom 1536-well plates using a Multidrop Combi (ThermoFisher Scientific, Waltham, MA) dispenser. After the assay plates were incubated at a 37C and 5% CO2 for 6 hr, 23 nL of compounds dissolved in DMSO, positive controls or DMSO only was transferred to the assay plate by a Pintool station (Kalypsys, San Diego, CA), followed by addition of 1 uL (1nM as final concentration) of 17-beta-estradiol (E2) in assay medium using a BioRAPTR FRD (Flying Reagent Dispenser, Aurora Discovery, San Diego, CA). The plates were incubated at 37C and 5% CO2 for 16 hr. Then 1 uL of LiveBLAzerTM B/G FRET substrate was added using a Flying Reagent Dispenser, the plates were incubated at room temperature for 2 hours, and fluorescence intensity was measured by an Envision plate reader (PerkinElmer, Shelton, CT).

The nature of test [2]: qHTS assay to identify small molecule agonists of the estrogen receptor beta (ER-beta) signaling pathway - cell viability counter screen (AID 1259380). Also: nearly all actives have a fitted effect of over 30% in size. Also: potency is read from the fitted curve at half-maximal effect. The following applies: ER-beta-bla HEK293T viability, CellTiter-Glo luminescence, 16 h; series mostly up to 92.4 µM. Put shortly:
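CellTiter-Glo read, 30 min RT, same wells as bla assay; cells ER-beta-UAS-bla HEK293T; 16 hr compound, 37C; medium 2% charcoal-stripped FBS.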
Background: In qHTS, concentration-response curves come from the screen itself.

The nature of test [3]: qHTS assay to identify small molecule antagonists of the estrogen receptor beta (ER-beta) signaling pathway - cell viability counter screen (AID 1259382).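 Also: HEK293T cells carrying ER-beta-UAS-bla reporter stimulated with estradiol; nearly all actives have a fitted effect of over 55% in size.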 The following applies: ER-beta-UAS-bla HEK293T viability, CellTiter-Glo luminescence, 16 h; at 92.4 µM (top of the series) unless noted. Put shortly: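 In this multiplexed counter screen, cells were seeded at 2,000 per well in medium with 2% charcoal-stripped FBS and incubated 6 hr before compound and 1nM final E2 were added. Sixteen hours later, ATP-based luminescence reported viability.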

Test [4] deals with Estrogen receptor (Homo sapiens) (UniProt P03372). Put plainly: qHTS assay to identify small molecule agonists of the estrogen receptor alpha (ER-alpha) signaling pathway in the presence of an antagonist (AID 1259383; calls by dose curve; also: top concentration of the series differs between compounds; nearly all actives have a fitted effect of over 15% in size). The following applies: VM7Luc4E2 cells, ERE-luciferase, +ICI-182,780, 22 h; at 92.4 µM (top of the series) unless noted.
The nature of test [5]: qHTS assay to identify small molecule agonists of the estrogen receptor alpha (ER-alpha) signaling pathway in the presence of an antagonist - cell viability counter screen (AID 1259386).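 Also: cells exposed to compounds for 22 h at 37 °C before the viability read; nearly all actives have a fitted effect of over 30% in size.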 The following applies: VM7Luc4E2 viability, CellTiter-Fluor fluorescence, 22 h; at 92.4 µM (top of the series). Summed up: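 Viability counter screen using VM7Luc4E2 (full-length ER-alpha, four ERE-luciferase). The cells were treated with compounds alongside ICI-182,780 10.0nM for 22hr, and live-cell protease fluorescence was quantified with CellTiter-Fluor.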

Test [6] addresses Progesterone receptor (Homo sapiens) (UniProt P06401). The test can be described thus: qHTS assay to identify small molecule agonists of the progesterone receptor (PR) signaling pathway (AID 1346784; calls by dose curve; also: nearly all actives have a fitted effect of over 30% in size; also: potency is read from the fitted curve at half-maximal effect). The following applies: PR-UAS-bla HEK293T, beta-lactamase FRET ratio, 16 h; series mostly up to 92.4 µM. Summed up: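 Beta-lactamase reporter read-out: after 16 hr compound treatment at 37C and a further 2 hr at room temperature with LiveBLAzer B/G FRET substrate, fluorescence was measured in PR-UAS-bla HEK 293T cells grown in 2% charcoal-stripped serum.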

Test [7] can be described thus: qHTS assay to identify small molecule agonists of the progesterone receptor (PR) signaling pathway - cell viability counter screen (AID 1346799; calls by dose curve; also: nearly all actives have a fitted effect of over 45% in size; also: potency is read from the fitted curve at half-maximal effect). The following applies: PR-UAS-bla HEK293T viability, CellTiter-Glo luminescence, 16 h; series mostly up to 92.4 µM. Put shortly: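 Luminescence from CellTiter-Glo, added after the beta-lactamase FRET read in the same wells, gave cytotoxicity in PR-UAS-bla HEK293T cells treated with compounds for 16 hr at 37C.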

For test [8], the target named is Thyrotropin receptor (Homo sapiens) (UniProt P16473). The test can be described thus: qHTS assay to identify small molecule antagonists of the thyroid stimulating hormone receptor (TSHR) signaling pathway (AID 1259385; calls by dose curve; also: nearly all actives have a fitted effect of over 20% in size). The following applies: TSHR-HEK293 cAMP HTRF, TSH-stimulated antagonist mode; at 92.4 µM (top of the series).
Test [9] in a line: qHTS assay to identify small molecule antagonists of the progesterone receptor (PR) signaling pathway - cell viability counter screen (AID 1346798). Also: nearly all actives have a fitted effect of over 50% in size. The following applies: PR-UAS-bla HEK293T viability, CellTiter-Glo luminescence, 16 h. Summed up: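 HEK293T PR-UAS-bla, 2% charcoal-stripped FBS; 4 hr pre-plate; cpd + R5020, 16 h 37C; LiveBLAzer read first; then CellTiter-Glo 30 min RT, luminescence.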

Test [10] has as its target Androgen receptor (Homo sapiens) (UniProt P10275). Put plainly: qHTS assay to identify small molecule agonists of the androgen receptor (AR) signaling pathway in the presence of an antagonist (AID 1259381; calls by dose curve; also: nearly all actives have a fitted effect of over 15% in size). The following applies: MDA-kb2 MMTV-luciferase, AR agonist + nilutamide, 16 h; series mostly up to 92.4 µM.
% is scaled to controls: 0 for no effect and ±100 for the full control effect.

`CP(=O)(O)OCCC[Si](O)(O)O`: in [1], the activity, negative = inhibition is inactive: 9.53%. Further, the Potency result in test [2], in test [6] and in test [7] was “inactive” each time. Besides, the activity change, negative = cytotoxicity in [3] is inactive: 9.4%; in [5], inactive: -3.22%. Moreover, the activation in [4] is inactive: -0.965%.

For `CCOP(=O)(CC)OCC`, in test [1], the activity, negative = inhibition was inactive: 3.03%. Besides, the Potency entry in [2], in test [6] and in test [7] was “inactive” in each case. The results for the activity change, negative = cytotoxicity in [3], in test [5] and in test [9] (at 92.4 µM (top of the series)) were inactive: 18.1%, inactive: 4.64% and inactive: 14.1%, respectively. Also, in test [8], the activity change, negative = inhibition is inactive: -0.738%.

As to `Cc1ccc([N+](=O)[O-])c([N+](=O)[O-])c1`, the Potency in test [2] was active: 70 µM and inactive; in [7] it was active: 70 µM and inactive. Further, the values for the activity change, negative = cytotoxicity in test [3] and in test [5] were inactive: -3.28% and inactive: -9.73%, respectively. Moreover, the activation in [4] is inactive: -5.66% and inactive: -0.349%.

Consider `COP(C)(=O)OC`, for which the activity, negative = inhibition in test [1] was inactive: 17.6% and inactive: 13.4%. Moreover, the Potency result in test [2] and in [6] was “inactive” throughout. The activity change, negative = cytotoxicity is inactive: 0.192% and inactive: 9.17% in [3]; inactive: 1.09% and inactive: 0.369% in [5]; inactive: 13.9% and inactive: 2.83% in test [9] (at 92.4 µM (top of the series)). Further, the activation in test [4] is inactive: 0.04% and inactive: -0.709%. Further, in test [8], the activity change, negative = inhibition is inactive: -1.11% and inactive: 0.869%.

For `CC(C)OP(C)(=O)OC(C)C`, in test [1], the activity, negative = inhibition was inactive: 19.3%. Besides, the Potency entry in test [2], in test [6] and in [7] was “inactive” in each case. The activity change, negative = cytotoxicity in [3] is inactive: -12.4% and inactive: 1.47%; in [5] it was inactive: 2.18%; in test [9] (at 92.4 µM (top of the series)), inactive: 15.1%. In [4], the activation is inactive: 6.15% and inactive: -1.65%. For the same compound, the activity change, negative = inhibition in test [8] was inactive: -1.77% and inactive: -0.147%.

As to `O=[N+]([O-])OCC(CO[N+](=O)[O-])(CO[N+](=O)[O-])CO[N+](=O)[O-]`, the activity, negative = inhibition in [1] is inactive: -7.23%. Further, the Potency result in test [2], in [10], in test [6] and in test [7] was “inactive” in each case. Further, the figures for the activity change, negative = cytotoxicity in test [3], in [5] and in test [9] (at 92.4 µM (top of the series)) were inactive: 13.7%, inactive: 0.537% and inactive: -1.16%, respectively. In addition, in [4], the activation is inactive: 0.975%. For the same compound, the activity change, negative = inhibition in test [8] was inactive: 4.2%.

For the compound `CC(C)N(CCO)C(C)C`, the activity, negative = inhibition in test [1] was inactive: -4.04%. The Potency result in test [2], in test [10] and in [7] was “inactive” throughout. Further, the activity change, negative = cytotoxicity is inactive: -5.9% in test [3], inactive: 6.14% in [5] and inactive: -4.33% in test [9] (at 92.4 µM (top of the series)). Moreover, the activity change, negative = inhibition in test [8] is inactive: -0.168%.

On to `Nc1cc([N+](=O)[O-])cc([N+](=O)[O-])c1O`, for which, in test [3], the activity change, negative = cytotoxicity was inactive: -6.82%. Moreover, the activation in test [4] is inactive: -2.42%. Besides, the Potency result in [6] was “inactive”.

Consider `O=[N+]([O-])c1cccc([N+](=O)[O-])c1`, for which, in test [2], the Potency entry is “inactive”. The activity change, negative = cytotoxicity in test [3] was inactive: -1.1%. Moreover, the activation in test [4] is inactive: 1.79%. Also, the Potency in test [6] was active: 3.19 µM.

As to `C/C1=C2N=C(/C=C3N=C(/C(C)=C4\[N-][C@@](C)([C@@H]5N=C1[C@](C)(CCC(=O)NC[C@@H](C)OP(=O)([O-])O[C@H]1[C@@H](O)[C@@H](n6cnc7cc(C)c(C)cc76)O[C@@H]1CO)[C@H]5CC(N)=O)[C@@](C)(CC(N)=O)[C@@H]4CCC(N)=O)[C@@](C)(CC(N)=O)[C@@H]\3CCC(N)=O)C(C)(C)[C@@H]/2CCC(N)=O.[C-]#N.[Co+3]`, the activity, negative = inhibition in test [1] is inactive: 13.7% [at 42.5 µM]. The Potency result in [2], in test [6] and in [7] was “inactive” throughout. Also, the activity change, negative = cytotoxicity in test [3] is inactive: 5.86% [at 42.5 µM]; in [9] (at 42.5 µM (top of the series)), inactive: -1%. The activation in test [4] is inactive: -2.73% [at 42.5 µM].

Regarding `COc1ccc([N+](=O)[O-])cc1[N+](=O)[O-]`, the Potency result in [2], in test [6] and in test [7] was “inactive” each time. For the same compound, the results for the activity change, negative = cytotoxicity in test [3], in test [5] and in test [9] (at 92.4 µM (top of the series)) were inactive: 8.69%, inactive: 0.371% and inactive: 0.38%, respectively. Further, in [4], the activation was inactive: -1.4%. Besides, in test [8], the activity change, negative = inhibition was inactive: -0.386%.

With `CCOP(=O)(CC)Oc1ccc([N+](=O)[O-])cc1` (configuration not stated), the Potency result in test [2] and in test [10] was “inactive” in each case. Besides, the activity change, negative = cytotoxicity in test [3] is inactive: -3.61% [at 42.5 µM]; in [9] (at 42.5 µM (top of the series)) it was inactive: -22.3%. The activation in test [4] is inactive: 1.01% [at 42.5 µM].
